Experimental data reported in patent US20060094783A1 (Tava Pharmaceutical Industries, Ltd., priority 1990, published 2006).

Assay: Physicochemical properties of PAI salts
Details: saturated PAI salt water solution

tartarate
Solubility: 33 mg/mL
